Assay results: EP3428179B1, “PEPTIDE FOR PREVENTING OR TREATING INFLAMMATORY DISEASES AND USE THEREOF” (dated 2026)

What was measured:
[1] = system: collagen-induced arthritis mouse model; test: arthritis progression index in collagen-induced arthritis (CIA) mouse model
[2] = evaluation of toxicity: mortality and change in body weight after intraperitoneal administration

## N=C(N)NCCC[C@H](NC(=O)CNC(=O)[C@H](CC(=O)O)NC(=O)[C@@H](N)CCCNC(=N)N)C(=O)N[C@@H](CC(=O)O)C(=O)NCC(=O)O
[1]; at all the concentrations (0.1 µmole, 1 µmole, 10 µmole), Table 3, FIG. 4
  arthritis progression index versus control mouse: significantly decreased
[1]; visual check, FIG. 3, 1 µmole intraperitoneally three times a week, compared with the control
  swelling and redness symptoms around the ankle joint: remarkably mitigated
[2]; 0.1 µmole, 1 µmole or 10 µmole intraperitoneally
  mortality of the mouse: not observed
[2]; at all the concentrations (0.1 µmole, 1 µmole, 10 µmole)
  difference in body weight from that of the control: did not have a large difference
